A short description of this data set: Solubility of the compound in water. Particulars: buffer.

Regarding `O=[N+]([O-])c1ccc(/C=N/O)cc1`, the solubility entry is given as “soluble”. The result for `O/N=C/c1ccc(Cl)cc1` reads “soluble”; that for `O/N=C/c1ccccc1`, “soluble”; that for `O/N=C/c1ccc(F)cc1`, “soluble”. For the compound `O/N=C/c1cccs1`, the solubility entry was “soluble”. With `COc1ccc(/C=N/O)cc1`, the solubility entry was “soluble”. For the compound `C[n+]1ccccc1/C=N/O.[I-]`, the solubility result is listed as “soluble”.

Values taken from ChEMBL document CHEMBL2417470, “NMR determination of Electrophorus electricus acetylcholinesterase inhibition and reactivation by neutral oximes” (2013).
